The target in this assay is NQO1 protein (Homo sapiens, UniProt P15559). As to the kind of experiment: NQO1 activity measurement (cytochrome C reduction). The assay is classed as biochemical. As to conditions: 5 ng NQO1 protein, 200 μM NADH, 77 μM cytochrome C, 37° C., absorbance 550 nm for 10 minutes. How it is done:
An enzyme reaction solution included 25 mM Tris/HCl (pH 7.4), 0.14% bovine serum albumin, 200 μM NADH, 77 μM cytochrome C, and 5 ng of NQO1 protein. Enzymatic reaction was initiated by adding NADH and performed at 37° C. In this regard, a reaction rate was measured by observing absorbance, which was increased due to reduction of cytochrome C, at 550 nm for 10 minutes and NQO1 activity was represented as an amount of reduced cytochrome C [nmol cytochrome C reduced/min/μg protein].
Extinction coefficient for cytochrome C:21.1 mmol/L/cm=21.1 μmol/ml/cm

Protein sequences, listed by entry. Tags and fused reporters are not part of them.
UniProt P15559, whole entry, species assumed: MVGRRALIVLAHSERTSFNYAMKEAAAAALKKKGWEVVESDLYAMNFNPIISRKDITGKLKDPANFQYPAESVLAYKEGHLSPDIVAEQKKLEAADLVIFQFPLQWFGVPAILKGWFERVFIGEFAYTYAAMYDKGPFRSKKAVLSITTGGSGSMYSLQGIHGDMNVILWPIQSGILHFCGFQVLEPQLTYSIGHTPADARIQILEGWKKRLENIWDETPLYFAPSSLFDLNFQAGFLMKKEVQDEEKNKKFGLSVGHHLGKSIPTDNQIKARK

Data on four compounds can be found in patent US10766882B2, “1,2-naphthoquinone based derivative and method of preparing the same” (YUNGJIN PHARM. CO., LTD., priority 2013, dated 2020).

`CC(C)c1nc2c(n1CCCN1CCOCC1)C(=O)C(=O)c1ccccc1-2` [Example 58, 2-isopropyl-3-(3-morpholinopropyl)-3H-naphtho[2,1-d]imidazole-4,5-dione]: the “NQO1 activity (5 μM, [nmol cytochrome C reduced/min/μg protein])” value is 53.4 nmol cytochrome C reduced/min/μg protein.
Regarding `CC(C)c1nc2c(n1CCCN(C)C)C(=O)C(=O)c1ccccc1-2` [Example 56, 3-(3-(dimethylamino)propyl)-2-isopropyl-3H-naphtho[2,1-d]imidazole-4,5-dione], the “NQO1 activity (5 μM, [nmol cytochrome C reduced/min/μg protein])” value was 24.6 nmol cytochrome C reduced/min/μg protein.
As for `CC(C)c1nc2c(n1CCCN1CCCC1)C(=O)C(=O)c1ccccc1-2` [Example 57, 2-isopropyl-3-(3-(pyrrolidin-1-yl)propyl)-3H-naphtho[2,1-d]imidazole-4,5-dione], the “NQO1 activity (5 μM, [nmol cytochrome C reduced/min/μg protein])” value was 75.7 nmol cytochrome C reduced/min/μg protein.
On to `CC(C)c1nc2c(n1CCCCl)C(=O)C(=O)c1ccccc1-2` [Example 55, 3-(3-chloropropyl)-2-isopropyl-3H-naphtho[2,1-d]imidazole-4,5-dione], for which the “NQO1 activity (5 μM, [nmol cytochrome C reduced/min/μg protein])” value is given as 139.8 nmol cytochrome C reduced/min/μg protein.
